# Apparent affinities of Ab-14 variants for a coronavirus HR2 peptide

Target peptide (SARS-CoV-2 spike, HR2 region): PDVDLGDISGINAS

The variants keep the light chain, the linker and the frameworks of Ab-14 (scFv order VH, a 15-residue (Gly4Ser)3 linker, VL).
VH: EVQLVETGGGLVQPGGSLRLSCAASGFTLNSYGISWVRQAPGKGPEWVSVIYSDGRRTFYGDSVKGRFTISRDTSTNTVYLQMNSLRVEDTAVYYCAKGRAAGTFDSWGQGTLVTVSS
VL: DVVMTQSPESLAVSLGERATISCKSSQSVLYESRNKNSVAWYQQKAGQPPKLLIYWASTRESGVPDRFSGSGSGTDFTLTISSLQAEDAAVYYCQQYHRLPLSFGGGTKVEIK

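Library AAYL49 holds single substitutions and randomly drawn double and triple substitutions in the CDRs. Affinity was read by AlphaSeq, a pooled yeast mating assay with surface-displayed partners. Pairs that bind mate more often; barcode pairs of the diploids are counted by sequencing. The ratio of observed to expected reads was calibrated, replicate by replicate, on BCL2-family standards whose Kd was known from biolayer interferometry. Mating was done three times.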

Changes read parent residue, position, new residue, counted from the first residue of the VH shown.
Values are log10 of the apparent Kd in nM; lower means stronger binding.
A pair that was not seen in that replicate is written "n.d."; this usually means weak binding, but a binder can also be missed.
Background: pairings of library AAYL49 with three empty control strains gave a value in 15% of cases (median 4.06, 5th percentile 2.83). Values in that range, when seen in few replicates, are hard to tell from nonspecific mating. The control count says in how many pairings with the empty strains this scFv gave a signal, with their mean in brackets.

changes | log10 Kd, replicates | control signals
D62E G103F F105G | 4.45 2.21 n.d. | 1/9 (3.95)
Y32F V50W Y60K | n.d. n.d. n.d. | 0/9
G61S S63H K65W | 3.19 1.99 2.69 | 2/9 (3.96)
S35F F59Q K65Q | n.d. n.d. n.d. | 0/9
R57Y F59H | n.d. n.d. n.d. | 0/9
R56N D62L F105C | n.d. n.d. n.d. | 1/9 (3.39)
K65C F105W D106Q | n.d. n.d. n.d. | 0/9
Y52L R56W A102G | n.d. n.d. n.d. | 0/9
F27E N30G R100L | 3.46 n.d. n.d. | 2/9 (3.53)
G99H A101M S107A | n.d. n.d. n.d. | 0/9
N30P I51Q G61W | n.d. n.d. n.d. | 1/9 (4.65)
Y52F S53P G55H | n.d. n.d. n.d. | 0/9
T28P K65G | 3.58 n.d. n.d. | 1/9 (4.20)
F59H G103L | n.d. n.d. 4.91 | 2/9 (4.60)
R56Q G61R S63R | 2.86 2.20 3.62 | 0/9
D54N K65H F105P | n.d. 4.08 n.d. | 1/9 (3.29)
N30T R56L F105T | n.d. n.d. n.d. | 0/9
G26C V50G T58P | 4.12 n.d. 5.14 | 9/9 (4.34)
R56M G61Y G99V | 4.05 n.d. n.d. | 2/9 (3.44)
D62H K65V S107L | n.d. n.d. n.d. | 0/9
Y52F G55M | n.d. n.d. n.d. | 0/9
R57C D62N T104W | n.d. n.d. n.d. | 1/9 (4.23)
V64Y G103T F105G | n.d. n.d. 5.79 | 3/9 (4.34)
G103K D106Q S107A | 1.32 1.69 1.90 | 0/9
G99Q A101W A102R | n.d. n.d. n.d. | 3/9 (4.40)
I51R S53K G99M | n.d. n.d. n.d. | 0/9
V50C Y52W Y60S | n.d. n.d. n.d. | 0/9
N30R Y60C S63R | n.d. n.d. n.d. | 0/9
G26V I34A R56W | n.d. 4.18 4.10 | 1/9 (4.11)
F59W D62T R100Q | 2.94 3.13 2.92 | 3/9 (3.30)
G26A F27C G55M | n.d. n.d. n.d. | 0/9
F59S R100D A102L | 1.42 1.30 1.53 | 2/9 (4.95)
G99L A102L S107G | n.d. n.d. n.d. | 1/9 (3.68)
Y52G D62I S107W | n.d. n.d. n.d. | 0/9
T28R A101C F105A | n.d. n.d. n.d. | 0/9
R57H D62R S107Q | n.d. n.d. n.d. | 0/9
G33E R100K | n.d. n.d. n.d. | 2/9 (3.75)
S53G R56Y Y60P | 4.03 3.66 n.d. | 2/9 (4.17)
R56F R57M G61N | n.d. n.d. n.d. | 1/9 (3.23)
V50Q V64H F105D | 3.84 3.31 n.d. | 1/9 (3.37)
G61D T104E S107H | 4.24 4.13 6.41 | 4/9 (4.82)
I34F G61W R100C | n.d. n.d. n.d. | 0/9

7 of these entries, quoted again:

changes,"log10 Kd, replicates",control signals
N30T R56L F105T,n.d. n.d. n.d.,0/9
V50C Y52W Y60S,n.d. n.d. n.d.,0/9
R56N D62L F105C,n.d. n.d. n.d.,1/9 (3.39)
G33E R100K,n.d. n.d. n.d.,2/9 (3.75)
D54N K65H F105P,n.d. 4.08 n.d.,1/9 (3.29)
F59S R100D A102L,1.42 1.30 1.53,2/9 (4.95)
R57C D62N T104W,n.d. n.d. n.d.,1/9 (4.23)

For reference, the parent read 0.65 as the reference entry and 4.11 (one replicate of three) as a member of this library.

Reference: Engelhart et al. 2022, doi:10.1038/s41597-022-01779-4. File: FLAb, binding data.